## Boiling point values, as collected for the OPERA models

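OPERA's authors assembled the values from existing databases and did not measure them anew. The files give a single number for a compound and property, which may rest on several reports. How each value was measured is not recorded, so precision varies. A value may pool stereoisomers or salt forms, and the file does not say which form was measured. Some entries may be limits or estimates that an upstream database listed as plain numbers.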

The boiling point refers to atmospheric pressure (760 mmHg), by the definition of the set.
Cells with "n/a" have no entry in this list.

compound,name,boiling point (°C)
O=C(O)C(F)(F)C(F)(F)C(F)(C(F)(F)F)C(F)(F)F,"2,2,3,3,4,5,5,5-octafluoro-4-(trifluoromethyl)pentanoic acid",157
CCOC1C(C)CCCC1C (stereo unspecified),"2-Ethoxy-1,3-dimethylcyclohexane",174
CC1CNC(=O)O1 (stereo unspecified),5-Methyl-2-oxazolidinone,305
CCCCNC(=O)CC[C@H](NC(=O)C(CC)CCCC)C(=O)NCCCC (some centres undefined),Dibutyl ethylhexanoyl glutamide,303.4
FC(F)C(F)(OB(OC(F)(C(F)F)C(F)(F)F)OC(F)(C(F)F)C(F)(F)F)C(F)(F)F (stereo unspecified),"Tris(1,1,1,2,3,3-hexafluoropropan-2-yl) borate",117.5
C=CC(=O)NCCC[Si](O[Si](C)(C)C)(O[Si](C)(C)C)O[Si](C)(C)C,N-[3-[Tris(trimethylsiloxy)silyl]propyl]acrylamide,301
C=C[C@]1(C)CC[C@@H](C(C)(C)O)C[C@H]1C(=C)C,n/a,254
CC1C(C)(C)C2CCc3cncnc3C2C1(C)C (stereo unspecified),n/a,339
c1ccc2c(c1)-c1cccc3c1c-2cc1ccccc13,Benzo(b)fluoranthene,481
CC(CCO)CCc1ccccc1 (stereo unspecified),3-Methyl-5-phenylpentan-1-ol,315.9
CON=C(Cc1cccnc1)c1ccc(Cl)cc1Cl,Pyrifenox,212

From the experimental data distributed with OPERA 2.9.